Test results taken from US20100008912A1, “COMBINATION DRUG” (TAKEDA PHARMACEUTICAL COMPANY LIMITED, priority 2006, published 2010).
Where a name gives a salt, the structure may show the parent alone.

System: N87 (gastric cancer)
Assay: Cell growth determination test of combined use, Combination Index, N87
Type: cell-based, human
Conditions: combined use with compound A
Experimental: The cell density of the cell suspension was measured by cell counter Sysmex CDA500, and the cell density was adjusted to 4×10^4 cell/mL using the aforementioned medium, which was dispensed to each well of a 96 well multi-well culture plate (Nunc) by 0.15 mL and cultured overnight at 37° C., 5% CO2. […] After culturing at 37° C., 5% CO2 for 5 days, the cells of each well were fixed, stained and subjected to colorimetry. The effect of the combined use was determined by the method of Chou T C, Talalay P Adv.
The effect of combined use was determined by the method of Chou T C, Talalay P Adv.

COc1cccc2c1C(=O)c1c(O)c3c(c(O)c1C2=O)C[C@@](O)(C(=O)CO)C[C@@H]3O[C@H]1C[C@H](N)[C@H](O)[C@H](C)O1 [doxorubicin hydrochloride]
Combination Index at the time of inhibition of cell growth by 50%: 1.01
